{"source": "paper PMC5385568", "target": "GST-AP-2αA appendage domain", "experiment": "pull-down; recombinant purified GST-AP-2αA/C appendage domains (10 μg) with His6-LC3b (5 μg); 150 mM NaCl, 10 mM HEPES pH 7.5, 5 mM imidazole, 2 mM DTT, 0.005% Triton X-100; 1 h at 4 °C; immunoblotting for LC3b", "data": [{"substance": "purified recombinant LC3b-His6 (from UniProt Q9GZQ8 1-120) (natural protein)", "values": [{"measurement": "fold preference over GST-AP-2αC", "value": 3, "unit": "fold"}]}]}
